Measured values from patent publication US9980943B2, “Methods of treating muscular dystrophy” (BOARD OF REGENTS OF THE NEVADA SYSTEM OF HIGHER EDUCATION, …, priority 2013, dated 2018).

System: α7 integrin (LacZ reporter in α7LacZ+/− myoblasts)
Test: qHTS of the LOPAC library and MLSMR (online screen, α7LacZ+/− myoblasts)

COc1ccc(-c2c[nH]nc2-c2ccc(OC)cc2)cc1 [Compound 106]
Curve Description: Partial
